US20240360179A1, “STAPLED PEPTIDES AND METHODS THEREOF” (FOG PHARMACEUTICALS, INC., priority 2021, published 2024)

By UniProt entry, the sequences of proteins in these tests, tags left out.
UniProt P35222, whole entry: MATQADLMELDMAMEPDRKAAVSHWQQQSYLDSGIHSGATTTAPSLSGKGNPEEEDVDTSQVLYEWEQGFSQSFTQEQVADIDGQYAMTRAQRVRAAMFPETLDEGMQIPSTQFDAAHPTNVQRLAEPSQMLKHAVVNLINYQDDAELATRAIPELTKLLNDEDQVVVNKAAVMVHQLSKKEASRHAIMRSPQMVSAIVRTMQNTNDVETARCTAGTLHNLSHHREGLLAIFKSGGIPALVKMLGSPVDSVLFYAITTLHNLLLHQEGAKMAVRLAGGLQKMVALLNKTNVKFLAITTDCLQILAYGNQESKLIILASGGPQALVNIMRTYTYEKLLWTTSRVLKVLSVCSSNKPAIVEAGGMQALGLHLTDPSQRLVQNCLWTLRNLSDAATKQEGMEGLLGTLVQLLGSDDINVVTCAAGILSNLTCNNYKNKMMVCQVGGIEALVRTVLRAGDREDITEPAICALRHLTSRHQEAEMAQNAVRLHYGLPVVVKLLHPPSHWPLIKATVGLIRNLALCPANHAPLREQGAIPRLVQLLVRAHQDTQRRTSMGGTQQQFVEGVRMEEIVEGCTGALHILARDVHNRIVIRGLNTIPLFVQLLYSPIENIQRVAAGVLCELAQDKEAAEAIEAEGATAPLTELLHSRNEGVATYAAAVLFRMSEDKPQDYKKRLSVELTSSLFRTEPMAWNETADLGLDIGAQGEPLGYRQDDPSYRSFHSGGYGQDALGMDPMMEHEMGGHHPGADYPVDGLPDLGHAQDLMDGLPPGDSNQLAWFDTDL

Target: T1, full-length B-Catenin (Uniprot ID P35222) (Homo sapiens, UniProt P35222)
T1 construct: 10 nM full-length B-Catenin (Uniprot ID P35222)
Experiment: biochemical
Type: binding
Conditions: beta-Catenin FP IC50 (nM), competition fluorescence polarization

| IC50 | SMILES |
| --- | --- |
| > 1000 nM | CC(=O)N1CCC[C@]12CC=CCCCC1(CCCC=CCCCOC(=O)N3CC[C@@]4(C3)NC(=O)[C@H](CCCCNC(=O)CC[C@@H](C(=O)N[C@@H](C)C(N)=O)NC(=O)[C@H](Cc3csc5ccccc35)NC(=O)[C@H](Cc3ccsc3)NC4=O)NC(=O)[C@H]([C@@H](c3ccccc3)C(C)C)NC(=O)[C@H](C)NC(=O)C(C)(C)NC(=O)[C@H](Cc3cccc(C(=O)O)c3)NC(=O)[C@H](CC(=O)O)NC1=O)NC(=O)[C@H](CC(C)(C)C)NC(=O)[C@H](CC(=O)O)NC2=O (single isomer, unassigned) [I-594, Ac-PL3-Asp-Npg-B5-Asp-3COOHF-Aib-Ala-RbiPrF-Lys*3-PyrS2-3Thi-BztA-GlnR*3-Ala-NH2] |
| < 50 nM | CC(=O)N1CCC[C@]12CC=CCCCC1(CCCC=CCCCOC(=O)N3CC[C@@]4(C3)NC(=O)[C@H](CCCCn3cc(nn3)CC[C@@H](C(=O)N[C@@H](C)C(N)=O)NC(=O)[C@H](Cc3csc5ccccc35)NC(=O)[C@H](Cc3ccccc3)NC4=O)NC(=O)[C@H](Cc3ccccc3)NC(=O)[C@H](C)NC(=O)C(C)(C)NC(=O)[C@H](Cc3cccc(C(=O)O)c3)NC(=O)[C@H](CC(=O)O)NC1=O)NC(=O)[C@H](CC(C)(C)C)NC(=O)[C@H](CC(=O)O)NC2=O (single isomer, unassigned) [I-419, Ac-PL3-Asp-Npg-B5-Asp-3COOHF-Aib-Ala-Phe-TriAzLys*3-PyrS2-Phe-BztA-sAbu*3-Ala-NH2] |
| > 1000 nM | CC(=O)N1CCC[C@]12CCCCCCC1(CCCCCCCCOC(=O)N3CC[C@@]4(C3)NC(=O)[C@H](CCC(=O)NCCCC[C@@H](C(N)=O)NC(=O)[C@H](Cc3csc5ccccc35)NC(=O)[C@H](Cc3ccccc3)NC4=O)NC(=O)[C@H](Cc3ccccc3)NC(=O)[C@H](C)NC(=O)[C@H](CCO)NC(=O)[C@H](CCC(N)=O)NC(=O)[C@H](CC(=O)O)NC1=O)NC(=O)[C@H](CC1CCCCC1)NC(=O)[C@H](CC(N)=O)NC2=O (relative stereo) [I-153, Ac-PL3-Asn-Cha-B5-Asp-Gln-Hse-Ala-Phe-GlnR*3-PyrS2-Phe-BztA-Lys*3-NH2] |
| > 1000 nM | CC(=O)N1CCC[C@]12CCCCCCC1(CCCCCCCCOC(=O)N3CC[C@@]4(C3)NC(=O)[C@H](CCC(=O)NCCCC[C@@H](C(N)=O)NC(=O)[C@H](Cc3csc5ccccc35)NC(=O)[C@H](Cc3ccsc3)NC4=O)NC(=O)[C@H](Cc3ccccc3)NC(=O)[C@H](C)NC(=O)[C@H](CCO)NC(=O)[C@H](CCC(N)=O)NC(=O)[C@H](CC(=O)O)NC1=O)NC(=O)[C@H](CC1CCCCC1)NC(=O)[C@H](CC(N)=O)NC2=O (relative stereo) [I-157, Ac-PL3-Asn-Cha-B5-Asp-Gln-Hse-Ala-Phe-GlnR*3-PyrS2-3Thi-BztA-Lys*3-NH2] |
| 750 to 1000 nM | CC(=O)N1CCC[C@]12CC=CCCCC1(CCCC=CCCCOC(=O)N3CC[C@@](C(=O)N[C@@H](Cc4ccsc4)C(=O)N[C@@H](Cc4csc5ccccc45)C(=O)N[C@@H](CCC(N)=O)C(N)=O)(C3)NC(=O)[C@@H]3CCCCn4cc(nn4)C[C@H](NC(=O)[C@H](CC(=O)O)NC(=O)[C@H](CC(=O)O)NC1=O)C(=O)N[C@@H](C)C(=O)N[C@@H](Cc1ccccc1)C(=O)N3)NC(=O)[C@H](CC(C)(C)C)NC(=O)[C@H](CC(=O)O)NC2=O (stereo partly drawn) [I-26, Ac-PL3-Asp-Npg-B5-Asp-Asp-sAla*3-Ala-Phe-TriAzLys*3-PyrS2-3Thi-BztA-Gln-NH2] |
| > 1000 nM | CC(=O)N1CCC[C@]12CC=CCCCC1(CCCC=CCCCOC(=O)N3CC[C@@]4(C3)NC(=O)[C@H](CCCCNC(=O)CC[C@@H](C(=O)N[C@@H](C)C(N)=O)NC(=O)[C@H](Cc3csc5ccccc35)NC(=O)[C@H](Cc3ccsc3)NC4=O)NC(=O)[C@H](Cc3ccccc3)NC(=O)[C@H](C)NC(=O)C(C)(C)NC(=O)[C@H](CCC(=O)O)NC(=O)[C@H](CCC(=O)O)NC1=O)NC(=O)[C@H](CC(C)(C)C)NC(=O)[C@H](CCC(=O)O)NC2=O (relative stereo) [I-552, Ac-PL3-Glu-Npg-B5-Glu-Glu-Aib-Ala-Phe-Lys*3-PyrS2-3Thi-BztA-GlnR*3-Ala-NH2] |
| < 50 nM | CC(=O)N1CCC[C@]12CC=CCCCC1(CCCC=CCCCOC(=O)N3CC[C@@]4(C3)NC(=O)[C@H](CCCCNC(=O)CC[C@@H](C(=O)N[C@@H](C)C(=O)N[C@@H](CO)C(N)=O)NC(=O)[C@H](Cc3csc5ccccc35)NC(=O)[C@H](Cc3ccccc3C(F)(F)F)NC4=O)NC(=O)[C@H](Cc3ccccc3)NC(=O)[C@H](C)NC(=O)C(C)(C)NC(=O)[C@H](Cc3cccc(C(=O)O)c3)NC(=O)[C@H](CC(=O)O)NC1=O)NC(=O)[C@H](CC(C)(C)C)NC(=O)[C@H](CC(=O)O)NC2=O (relative stereo) [I-230, Ac-PL3-Asp-Npg-B5-Asp-3COOHF-Aib-Ala-Phe-Lys*3-PyrS2-2F3MeF-BztA-GlnR*3-Ala-Ser-NH2] |
| < 50 nM | CC(=O)N1CCC[C@]12CC=CCCCC1(CCCC=CCCCOC(=O)N3CC[C@@]4(C3)NC(=O)[C@H](CCCCNC(=O)CC[C@@H](C(=O)N[C@@H](C)C(N)=O)NC(=O)[C@H](Cc3csc5ccccc35)NC(=O)[C@H](Cc3ccsc3)NC4=O)NC(=O)[C@H](CC3CCC3)NC(=O)[C@H](C)NC(=O)C(C)(C)NC(=O)[C@H](Cc3cccc(C(=O)O)c3)NC(=O)[C@H](CC(=O)O)NC1=O)NC(=O)[C@H](CC(C)(C)C)NC(=O)[C@H](CC(=O)O)NC2=O (relative stereo) [I-353, Ac-PL3-Asp-Npg-B5-Asp-3COOHF-Aib-Ala-Cba-Lys*3-PyrS2-3Thi-BztA-GlnR*3-Ala-NH2] |
| < 50 nM | CC(=O)N1CCC[C@]12CC=CCCCC1(CCCC=CCCCOC(=O)N3CC[C@@]4(C3)NC(=O)[C@H](CCCCNC(=O)CC[C@@H](C(=O)N[C@@H](C)C(N)=O)NC(=O)[C@H](Cc3ccc(Cl)c(Cl)c3)NC(=O)[C@H](Cc3ccccc3)NC4=O)NC(=O)[C@H](Cc3ccc4ccccc4c3)NC(=O)[C@H](C)NC(=O)C(C)(C)NC(=O)[C@H](Cc3cccc(C(=O)O)c3)NC(=O)[C@H](CC(=O)O)NC1=O)NC(=O)[C@H](CC(C)(C)C)NC(=O)[C@H](CC(=O)O)NC2=O (single isomer, unassigned) [I-481, Ac-PL3-Asp-Npg-B5-Asp-3COOHF-Aib-Ala-2NapA-Lys*3-PyrS2-Phe-34ClF-GlnR*3-Ala-NH2] |
| < 50 nM | CC(=O)N1CCC[C@]12CC=CCCCC1(CCCC=CCCCOC(=O)N3CC[C@@]4(C3)NC(=O)[C@H](CCCCn3cc(nn3)COC[C@@H](C(=O)N[C@@H](C)C(N)=O)NC(=O)[C@H](Cc3csc5ccccc35)NC(=O)[C@H](Cc3ccsc3)NC4=O)NC(=O)[C@H](Cc3ccccc3)NC(=O)[C@H](C)NC(=O)[C@H](C)NC(=O)[C@H](Cc3cccc(C(=O)O)c3)NC(=O)[C@H](CC(=O)O)NC1=O)NC(=O)[C@H](CC(C)(C)C)NC(=O)[C@H](CC(=O)O)NC2=O (relative stereo) [I-264, Ac-PL3-Asp-Npg-B5-Asp-3COOHF-Ala-Ala-Phe-TriAzLys*3-PyrS2-3Thi-BztA-sCH2S*3-Ala-NH2] |
| < 50 nM | CC(=O)N1CCC[C@]12CC=CCCCC1(CCCC=CCCCOC(=O)N3CC[C@@]4(C3)NC(=O)[C@@H](CCNC(=O)CC[C@@H](C(=O)N[C@@H](C)C(N)=O)NC(=O)[C@H](Cc3csc5ccccc35)NC(=O)[C@H](Cc3ccsc3)NC4=O)NC(=O)[C@H](Cc3ccccc3)NC(=O)[C@H](C)NC(=O)C(C)(C)NC(=O)[C@H](Cc3cccc(C(=O)O)c3)NC(=O)[C@H](CC(=O)O)NC1=O)NC(=O)[C@H](CC(C)(C)C)NC(=O)[C@H](CC(=O)O)NC2=O (relative stereo) [I-559, Ac-PL3-Asp-Npg-B5-Asp-3COOHF-Aib-Ala-Phe-dDab*3-PyrS2-3Thi-BztA-GlnR*3-Ala-NH2] |
| < 50 nM | CC(=O)N1CCC[C@]12CC=CCCCC1(CCCC=CCCCOC(=O)N3CC[C@@]4(C3)NC(=O)[C@H](CCCCNC(=O)CC[C@@H](C(=O)N[C@@H](C)C(N)=O)NC(=O)[C@H](Cc3csc5ccccc35)NC(=O)[C@H](Cc3ccsc3)NC4=O)NC(=O)[C@H](Cc3ccccc3)NC(=O)[C@H](CC3CCC3)NC(=O)C(C)(C)NC(=O)[C@H](Cc3cccc(C(=O)O)c3)NC(=O)[C@H](CC(=O)O)NC1=O)NC(=O)[C@H](CC(C)(C)C)NC(=O)[C@H](CC(=O)O)NC2=O (single isomer, unassigned) [I-531, Ac-PL3-Asp-Npg-B5-Asp-3COOHF-Aib-Cba-Phe-Lys*3-PyrS2-3Thi-BztA-GlnR*3-Ala-NH2] |
| < 50 nM | CC(=O)N1CCC[C@]12CC=CCCCC1(CCCC=CCCCOC(=O)N3CC[C@@]4(C3)NC(=O)[C@H](CCCCNC(=O)CC[C@@H](C(=O)N[C@@H](C)C(N)=O)NC(=O)[C@H](Cc3csc5ccccc35)NC(=O)[C@H](Cc3ccsc3)NC4=O)NC(=O)[C@H](Cc3cccc(Br)c3)NC(=O)[C@H](C)NC(=O)C(C)(C)NC(=O)[C@H](Cc3cccc(C(=O)O)c3)NC(=O)[C@H](CC(=O)O)NC1=O)NC(=O)[C@H](CC(C)(C)C)NC(=O)[C@H](CC(=O)O)NC2=O (single isomer, unassigned) [I-578, Ac-PL3-Asp-Npg-B5-Asp-3COOHF-Aib-Ala-3BrF-Lys*3-PyrS2-3Thi-BztA-GlnR*3-Ala-NH2] |
| 50 to 200 nM | CC(=O)N1CCC[C@]12CC=CCCCC1(CCCC=CCCCOC(=O)N3CC[C@@]4(C3)NC(=O)[C@H](CCCCNC(=O)CC[C@@H](C(=O)N[C@@H](C)C(N)=O)NC(=O)[C@H](Cc3csc5ccccc35)NC(=O)[C@H](Cc3ccsc3)NC4=O)NC(=O)[C@H](Cc3ccccc3)NC(=O)[C@H](CCC(=O)O)NC(=O)C(C)(C)NC(=O)[C@H](Cc3cccc(C(=O)O)c3)NC(=O)[C@H]([C@H](C)O)NC1=O)NC(=O)[C@H](CC(C)(C)C)NC(=O)[C@H](CC(=O)O)NC2=O (relative stereo) [I-524, Ac-PL3-Asp-Npg-B5-aThr-3COOHF-Aib-Glu-Phe-Lys*3-PyrS2-3Thi-BztA-GlnR*3-Ala-NH2] |
| 50 to 200 nM | CC(=O)N1CCC[C@]12CC=CCCCC1(CCCC=CCCCOC(=O)N3CC[C@@]4(C3)NC(=O)[C@H](CCCCNC(=O)CC[C@@H](C(=O)N[C@@H](C)C(N)=O)NC(=O)[C@H](Cc3csc5ccccc35)NC(=O)[C@H](Cc3ccsc3)NC4=O)NC(=O)[C@H](Cc3ccccc3)NC(=O)C(C)(C)NC(=O)[C@H](C)NC(=O)[C@H](Cc3cccc(C(=O)O)c3)NC(=O)[C@H](CC(=O)O)NC1=O)NC(=O)[C@H](CC(C)(C)C)NC(=O)[C@H](CC(=O)O)NC2=O (single isomer, unassigned) [I-442, Ac-PL3-Asp-Npg-B5-Asp-3COOHF-Ala-Aib-Phe-Lys*3-PyrS2-3Thi-BztA-GlnR*3-Ala-NH2] |
